Measured values: patent publication US9873702B2, “Heterocyclic compounds as biogenic amine transport modulators” (Southern Research Institute, priority 2014, dated 2018)

By UniProt entry, the sequences of proteins in these tests, tags left out.
UniProt P23977, whole entry: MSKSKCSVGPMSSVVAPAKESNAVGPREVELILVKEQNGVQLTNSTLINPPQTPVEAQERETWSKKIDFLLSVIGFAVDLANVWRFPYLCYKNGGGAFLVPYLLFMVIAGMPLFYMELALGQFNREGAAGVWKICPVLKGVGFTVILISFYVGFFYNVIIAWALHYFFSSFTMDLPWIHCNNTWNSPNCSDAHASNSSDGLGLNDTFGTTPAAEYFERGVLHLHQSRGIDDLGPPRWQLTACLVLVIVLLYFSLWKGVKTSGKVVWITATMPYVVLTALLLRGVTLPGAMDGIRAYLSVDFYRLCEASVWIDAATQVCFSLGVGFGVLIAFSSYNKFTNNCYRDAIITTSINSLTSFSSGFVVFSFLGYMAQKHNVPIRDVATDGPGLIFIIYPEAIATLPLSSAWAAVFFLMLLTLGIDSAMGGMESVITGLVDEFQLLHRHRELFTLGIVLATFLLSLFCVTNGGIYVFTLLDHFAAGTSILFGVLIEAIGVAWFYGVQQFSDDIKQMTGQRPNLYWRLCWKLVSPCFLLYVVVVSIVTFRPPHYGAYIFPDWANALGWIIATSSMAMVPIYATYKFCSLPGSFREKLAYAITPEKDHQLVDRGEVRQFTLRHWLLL

How the values were obtained:
[1] = biological target: T1, dopamine transporter (DAT) (Rattus norvegicus, UniProt P23977); assay: Dopamine transporter-mediated [^3H]MPP^+ release, shift of D-amphetamine-induced release, rat caudate synaptosomes; format: biochemical; parameters: Freshly removed caudate was homogenized in 10% ice-cold sucrose; from tissue; host or cells: rat caudate synaptosomes
[2] = biological target: T1, dopamine transporter (DAT); assay: d-Amphetamine-induced DAT-mediated [^3H]DA release; format: biochemical; parameters: Freshly removed caudate was homogenized in 10% ice-cold sucrose; from tissue; host or cells: rat caudate synaptosomes; conditions: Apparent Kc = [Blocker]/((EC50-2/EC50-1) − 1), negative when shifted EC50 is less than control

C[C@H](N)Cc1ccccc1 [D-Amphetamine, D-amphetamine, reference compound]
D-Amphetamine Emax (% ± SD) ([1]; D-amphetamine-induced DAT-mediated [^3H]MPP^+ release, no test compound): 104 ± 4%

c1ccc(CCCN2CCN(CCOC(c3ccccc3)c3ccccc3)CC2)cc1 [GBR12935, reference compound]
Apparent Kc ([1]; [3H]MPP+ release, Apparent Kc = [Blocker]/((EC50-2/EC50-1) − 1), negative when shifted EC50 is less than control): 0.22 nM | effect on the d-amphetamine Emax value, in words ([1]; d-amphetamine-induced DAT-mediated [^3H]MPP^+ release, blocking concentration ˜25 times IC50 for DAT uptake inhibition): without changing the Emax value | Apparent Kc [2]: 0.74 nM
